Yeast mating assay B: variants of the scFv Ab-14

Values reported by Li et al. 2023, doi:10.1038/s41467-023-39022-2 (FLAb copy).

The target is the same throughout: PDVDLGDISGINAS, from the HR2 region of SARS-CoV-2 spike.

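The parent was found by panning a naive human phage display library on the peptide. These sequences belong to a second round, designed from the earlier measurements on random variants of the parent. Several design methods are mixed in this list. AlphaSeq pools MATa yeast showing the antibodies with MATalpha yeast showing the peptide. Binding brings cells together so that they mate, and sequencing counts the barcode pairs among the diploids. A regression on co-assayed BCL2-family reference pairs converts the normalised counts of each replicate to an apparent Kd. Mating was done six times.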

The variants keep the heavy chain, the linker and the frameworks of Ab-14 (scFv order VH, three GGGGS repeats, VL).
VH: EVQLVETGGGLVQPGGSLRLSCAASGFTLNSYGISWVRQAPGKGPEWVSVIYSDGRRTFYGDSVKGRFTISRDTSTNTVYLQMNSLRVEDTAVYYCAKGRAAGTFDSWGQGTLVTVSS
VL: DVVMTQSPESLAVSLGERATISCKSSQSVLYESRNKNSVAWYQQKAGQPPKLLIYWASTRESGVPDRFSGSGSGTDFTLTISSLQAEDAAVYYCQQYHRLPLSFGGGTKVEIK

The parent's light chain CDRs are KSSQSVLYESRNKNSVA, WASTRES, QQYHRLPLS; each variant's own CDRs replace them letter for letter. The read-out is the apparent dissociation constant on a log10 scale (nM): the lower, the stronger. Averages over replicates are reported, and they cover detected replicates only. Where no diploid with the target was found in any replicate, the entry reads "nd": below detection, most likely a poor binder, though not proof of it.

-0.07 (6 of 6 replicates): KFQQSQLYESRNKNSVA, NASTRES, QQYHRLPLS.
-0.02 (6 of 6 replicates): KVSQSVLYESRNKNSVA, DASTRES, QQYHRLPLS.
0.73 (6 of 6 replicates): KSSQSVLEESREKNSVA, WASTRES, QQYHRLPLS.
1.11 (6 of 6 replicates): LISGVWDYGSRNYNSVA, QTSTREN, QQYDRLPLS.
0.59 (6 of 6 replicates): KFSMSEDYESRNSNSVA, NAQTRMS, QQYHRLPLS.
0.55 (6 of 6 replicates): KSLQSVLYESRNKNSVA, HASTRED, QQYHRIPLS.
0.30 (6 of 6 replicates): KSSQSWLYESRNKNSVA, GASFRES, QQYHRLPLS.
0.03 (6 of 6 replicates): KSSVSYLGESRNKNSVA, EASTRES, QQYHRLPLS.
-0.60 (6 of 6 replicates): KLSQSVDYESRNKNNVA, HASTRES, QQYHRLPLS.
1.80 (6 of 6 replicates): KLRELIHVESKQKNNVA, DNSTRES, QDYHRLPLS.
-0.12 (6 of 6 replicates): KFSQSVLYESVNKNSVA, DASTRES, QQYHRLPLS.
-0.01 (6 of 6 replicates): KMQQSNLYESRNKNSVA, NASTRMW, QQYHRLPLS.
-0.28 (6 of 6 replicates): KVQQSVLYESRNKNSVA, NASTRLS, QQYHRLPLS.
0.74 (6 of 6 replicates): KVSQSWLMESRNKNSVA, EASTRWS, QQYHRLPLS.
0.17 (6 of 6 replicates): KSSQSVLYESRNDNSVA, QASTRES, QQYHRLPLS.
-0.36 (6 of 6 replicates): KVAYSEPYESRNKNSVA, DASTRSS, QQYHRLPLS.
1.36 (6 of 6 replicates): TLYGLSVSMSKNVNNVA, EMTTREK, QQYDRLPLV.
0.66 (6 of 6 replicates): MIDMGEAPNGQQTSSIA, QGHLRAE, QQYGRLPLC.
0.69 (6 of 6 replicates): KLSQSKLYESRNKNSVA, NASQRES, QQYHRLPLS.
-0.42 (6 of 6 replicates): KLSQSVLYESRNKNSVA, NANTRMS, QQYHRLPLS.
0.34 (6 of 6 replicates): KFSQSYHYESRNKNSVA, GASTRES, QQYHRLPLS.
1.15 (6 of 6 replicates): KISSLTSYESVNKNSVA, EMSTRPS, QSYHRLPLS.
0.19 (6 of 6 replicates): KLSQSVLMESRMVNNVA, EASQREE, QQYHRLPLS.
0.01 (6 of 6 replicates): KLSMSVMMESRNKNSVA, SANTRCE, QQYHRLPLS.
-0.24 (6 of 6 replicates): KLSESVLYESRWKNSVA, DASTREE, QQYHRLPLS.
1.68 (1 of 6 replicates): KLSATYRYESQNKNSIA, EMTTRER, QCYHRLPLS.
2.23 (4 of 6 replicates): HSSQSVLYESRNKNSVA, WASTREL, QQYHRLPLS.
0.05 (6 of 6 replicates): TLSDVMYMESRNYNSVA, DLVKRES, QQYHRLPLS.
nd (0 of 6 replicates): IISQLMNLGQFAINSVA, QATIRNS, QQYDRLPLA.
0.59 (6 of 6 replicates): TISQMSTMFSQSINNVA, EVSTRLN, QQYDRLPLM.
1.70 (6 of 6 replicates): NFEMFDGMLNMYASSIA, NAHCLVQ, QQYYRLPIS.
-0.33 (6 of 6 replicates): KLSQSFLMESRNKNSVA, NASTRES, QQYHRLPLS.
-0.02 (6 of 6 replicates): KLQNQYEYESRMKNSVA, NASTRLE, QQYHRLPLS.
0.02 (6 of 6 replicates): KLTSITGTEKVKGNNVA, EMETREK, QQYNRLPLS.
nd (0 of 6 replicates): KISMATTFESRNHNSVA, ENSTREA, QSYHRLPLS.
1.34 (5 of 6 replicates): KSSDSGLYESRNKNSVA, WASTRES, QQYTRLPLS.
1.65 (6 of 6 replicates): HIDDFEPSEGLKWNAIA, GDATRLQ, QAYARLPLS.
0.36 (6 of 6 replicates): KLRQSWLYESRNKNSVA, NASTRES, QQYHRLPLS.
1.40 (6 of 6 replicates): KSSQSVLYESRNKHSVA, NASTRES, QQYIRLPLS.
0.55 (6 of 6 replicates): HMSALTMLGMRQRNSVA, QMTTREN, QQYDRLPLA.
0.67 (6 of 6 replicates): KLRMMTLTGGYFKNSVA, QAETREN, QSYHRLPLS.
0.23 (6 of 6 replicates): KIGATLNQMMHKKNNVA, DLVTREQ, QQYHRLPLS.
0.25 (6 of 6 replicates): KASQSFLYESRNKNSVA, GASTRES, QNYHRLPLS.

Values of this round are not directly comparable with the first-round values of the same sequences. The authors averaged sequences with at least three values out of six and counted those with two or fewer as poor binders. Three control strains display no target. For all light chain designs, 4% of the pairings with them gave a signal, with a median of 2.64 and one signal in twenty below 1.59, so weak values seen in few replicates may be background. Of ten entries with the parent sequence, four were seen in most replicates (averages 0.34 to 2.37), three in one and three in none, so single entries are noisy.